Results taken from patent US6548494B1, “Tricyclic inhibitors of poly(ADP-ribose) polymerases” (Agouron Pharmaceuticals, Inc., priority 1999, dated 2003).

Amino acid sequences for entries named in this document (tags omitted).
UniProt P09874, whole entry: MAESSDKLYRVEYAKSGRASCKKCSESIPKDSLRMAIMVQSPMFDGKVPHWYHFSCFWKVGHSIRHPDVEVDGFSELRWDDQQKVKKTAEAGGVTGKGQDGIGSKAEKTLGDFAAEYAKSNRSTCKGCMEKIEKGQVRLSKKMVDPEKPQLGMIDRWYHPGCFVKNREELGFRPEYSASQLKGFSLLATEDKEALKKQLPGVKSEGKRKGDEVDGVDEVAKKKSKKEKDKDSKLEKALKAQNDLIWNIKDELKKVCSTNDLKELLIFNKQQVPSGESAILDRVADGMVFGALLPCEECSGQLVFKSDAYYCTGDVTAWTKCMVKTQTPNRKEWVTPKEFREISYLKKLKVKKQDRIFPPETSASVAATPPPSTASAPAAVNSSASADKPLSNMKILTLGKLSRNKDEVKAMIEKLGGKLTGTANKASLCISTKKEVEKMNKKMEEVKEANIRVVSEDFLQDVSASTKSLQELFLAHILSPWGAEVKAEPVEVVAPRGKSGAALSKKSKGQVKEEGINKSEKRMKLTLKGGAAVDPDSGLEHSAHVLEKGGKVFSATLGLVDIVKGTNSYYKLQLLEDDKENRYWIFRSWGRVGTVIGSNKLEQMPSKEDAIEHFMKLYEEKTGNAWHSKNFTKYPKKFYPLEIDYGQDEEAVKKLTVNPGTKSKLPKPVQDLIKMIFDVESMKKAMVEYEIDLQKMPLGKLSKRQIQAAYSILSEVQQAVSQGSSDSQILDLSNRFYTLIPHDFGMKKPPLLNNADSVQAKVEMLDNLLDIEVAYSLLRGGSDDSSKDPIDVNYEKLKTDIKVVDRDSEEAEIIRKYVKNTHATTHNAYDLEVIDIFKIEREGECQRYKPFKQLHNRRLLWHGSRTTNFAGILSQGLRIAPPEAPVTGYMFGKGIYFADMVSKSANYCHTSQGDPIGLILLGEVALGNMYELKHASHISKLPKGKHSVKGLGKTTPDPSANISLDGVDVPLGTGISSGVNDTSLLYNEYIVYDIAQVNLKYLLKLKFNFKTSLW

Target: purified PARP protein (Homo sapiens, UniProt P09874)
Assay: PARP enzyme inhibition assay
Assay type: biochemical
Details: 20 nM purified PARP (5 nM for tight-binding inhibitors), 500 μM NAD+, 25° C.; several values in one cell = repeat determinations; read-out: Inhibition Constant Ki

Q: Which Ki does the source give for Cc1c(-c2ccc(F)cc2)n2c3c(cccc13)C(=O)NCC2 [Example 50, 6-(4-Fluoro-phenyl)-7-methyl-3,4-dihydro-2H-[1,4]diazepino[6,7,1-hi]indol-1-one] here?
A: 22 nM
